Experimental data published in patent US5098996A, “Process for introducing fluorine into biologically active materials” (The United States of America as represented by the …, priority 1988, dated 1992).

The chains behind the UniProt entries cited, without tags or fusion partners.
UniProt P25099, whole entry: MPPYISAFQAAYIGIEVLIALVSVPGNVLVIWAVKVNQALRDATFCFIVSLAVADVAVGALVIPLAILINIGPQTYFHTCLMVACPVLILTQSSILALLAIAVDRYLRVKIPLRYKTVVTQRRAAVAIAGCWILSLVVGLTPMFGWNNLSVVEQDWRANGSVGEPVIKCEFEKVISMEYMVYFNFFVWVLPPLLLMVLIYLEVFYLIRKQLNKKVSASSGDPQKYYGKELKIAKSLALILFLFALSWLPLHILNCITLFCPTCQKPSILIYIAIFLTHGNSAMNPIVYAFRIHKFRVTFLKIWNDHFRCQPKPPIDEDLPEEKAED

target: A1 adenosine receptor (Rattus norvegicus, UniProt P25099); experiment: competitive binding assay, A1 adenosine receptor, rat brain membranes ([3H]-N6-phenylisopropyladenosine radiotracer); details: read-out: Ki-value in competitive binding assay

Row | Compound | Ki [nM]
1 | O=C(Cc1ccc(NC(=O)Cc2ccc(Nc3ncnc4c3ncn4[C@@H]3O[C@H](CO)[C@@H](O)[C@H]3O)cc2)cc1)NCCNCCNC(=O)c1ccc(CF)cc1 | 3
2 | O=C(Cc1ccc(NC(=O)Cc2ccc(Nc3ncnc4c3ncn4[C@@H]3O[C@H](CO)[C@@H](O)[C@H]3O)cc2)cc1)NCCNC(=O)c1ccc(CF)cc1 | 10
3 | CCCn1c(=O)c2[nH]c(-c3ccc(OCC(=O)NCCNC(=O)c4ccc(CF)cc4)cc3)nc2n(CCC)c1=O | 12
